Experimental findings from publication PMC6832952, “Synthesis and Evaluation of Pyrimidine Steroids as Antiproliferative Agents” (Molecules, 2019) are described below.

Amino acid sequences for entries named in this document (tags omitted).
UniProt P08183, whole entry: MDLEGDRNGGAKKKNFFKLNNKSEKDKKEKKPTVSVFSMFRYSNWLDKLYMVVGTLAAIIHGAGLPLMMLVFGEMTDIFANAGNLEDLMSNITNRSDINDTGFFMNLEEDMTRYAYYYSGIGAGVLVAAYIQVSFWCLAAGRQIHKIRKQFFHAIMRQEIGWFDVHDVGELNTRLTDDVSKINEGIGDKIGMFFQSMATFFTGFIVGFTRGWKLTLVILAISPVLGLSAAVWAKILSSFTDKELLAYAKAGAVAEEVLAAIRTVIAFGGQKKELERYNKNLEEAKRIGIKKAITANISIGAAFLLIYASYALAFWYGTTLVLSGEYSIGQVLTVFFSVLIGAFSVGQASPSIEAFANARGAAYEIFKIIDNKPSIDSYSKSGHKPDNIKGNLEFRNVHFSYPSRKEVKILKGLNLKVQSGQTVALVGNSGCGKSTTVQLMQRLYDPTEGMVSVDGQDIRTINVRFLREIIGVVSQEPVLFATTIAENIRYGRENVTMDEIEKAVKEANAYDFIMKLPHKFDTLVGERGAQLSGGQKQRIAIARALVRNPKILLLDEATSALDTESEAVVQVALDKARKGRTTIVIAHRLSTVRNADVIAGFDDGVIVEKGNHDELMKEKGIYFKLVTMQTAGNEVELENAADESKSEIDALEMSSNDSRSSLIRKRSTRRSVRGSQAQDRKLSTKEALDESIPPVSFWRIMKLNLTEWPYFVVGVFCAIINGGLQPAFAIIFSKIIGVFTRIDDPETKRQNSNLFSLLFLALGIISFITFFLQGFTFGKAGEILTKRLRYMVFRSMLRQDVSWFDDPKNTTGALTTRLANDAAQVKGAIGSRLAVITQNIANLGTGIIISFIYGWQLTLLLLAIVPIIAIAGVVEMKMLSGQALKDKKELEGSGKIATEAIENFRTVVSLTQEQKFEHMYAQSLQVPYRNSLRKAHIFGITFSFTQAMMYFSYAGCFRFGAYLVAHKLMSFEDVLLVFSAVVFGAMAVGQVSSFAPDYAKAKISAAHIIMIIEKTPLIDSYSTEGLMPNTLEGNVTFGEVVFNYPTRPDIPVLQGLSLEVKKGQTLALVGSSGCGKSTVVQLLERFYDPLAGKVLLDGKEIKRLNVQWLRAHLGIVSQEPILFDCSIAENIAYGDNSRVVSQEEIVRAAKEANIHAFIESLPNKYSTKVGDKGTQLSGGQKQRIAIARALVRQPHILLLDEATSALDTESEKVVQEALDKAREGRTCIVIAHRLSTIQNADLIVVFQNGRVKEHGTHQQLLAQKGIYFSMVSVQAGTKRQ

This data set concerns the target T1, P-glycoprotein 1 (P-gp) (Homo sapiens, UniProt P08183).
T1 construct: its P-gp overexpressing variant (SW1573/PGP); endogenous in cells; host or cells: SW1573 and SW1573/PGP (SW1573/Pgp) human non-small cell lung cancer cells, provided by Dr. G. J. Peters (Amsterdam)
The data set can be described thus: P-glycoprotein assay (SW1573/PGP vs SW1573, resistance factor). It counts as cell-based. From the text:
Next, we studied if the compounds could be substrates for P-glycoprotein 1 (P-gp). P-gp is an important protein of the cell membrane that pumps xenobiotics out of cells. One of the resistance mechanisms to anticancer drugs involves the overexpression of P-gp by cancer cells, rendering these cancers multidrug resistant. Therefore, it is relevant to know whether compounds are substrates for P-gp or not. As a model to test the effect of P-gp overexpression in our compounds, we used a cell line-based assay. We selected one wild type human lung cancer cell line (SW1573) and its P-gp overexpressing variant (SW1573/PGP). In this test, cells were exposed to the compounds for 48 h in the absence or the presence of 10 µM verapamil, a well-known P-gp inhibitor [20].
The antiproliferative activity was tested in vitro against human cancer cells using the protocol of the National Cancer Institute (NCI) of the USA16 with minor modifications. The following densities (cells per well) were used: 2500 (A549, HBL-100, HeLa and SW1573), 5000 (T-47D, WiDr and SW1573/PGP), and 7000 (BJ-hTERT). Samples for testing were dissolved initially in DMSO at 40 mM, i.e., 400 times the maximum test concentration. Abiraterone and galeterone were used as reference drugs for antiproliferative tests, verapamil was used as a P-gp transport inhibitor in SW1573/Pgp experiments, and their stock solutions were prepared in DMSO at 40 mM. Paclitaxel and vinblastine were used as positive controls in SW1573/Pgp experiments and were initially dissolved in DMSO at 4 mM. For each test compound, the cells were exposed to serial decimal dilutions in the range of 0.001–100 μM for a period of 48 h. Cell culture medium containing verapamil was prepared by adding the final concentration of verapamil of 10 μM. For each product GI50 values were calculated according to the NCI formulas.

Turning to “20-Oxopregna-5,16-dien-3β-yl Acetate [Compound 6]”, the “substrate for P-gp” value (SW1573 vs SW1573/PGP, with or without 10 µM verapamil) is listed as “not substrates for P-gp”. Moreover, the “Rf w Verapamil” value (ratio between GI50 values in SW1573/PGP and SW1573 cells, with 10 µM verapamil) is 1.3. Also, the “Rf w/o Verapamil” value (ratio between GI50 values in SW1573/PGP and SW1573 cells, without verapamil) came out at 1.4.
